# Ab-14 light chain CDR variants: yeast mating affinities

Reference: Li et al. 2023, doi:10.1038/s41467-023-39022-2. File: FLAb, binding data.

Binding partner: SARS-CoV-2 spike HR2 peptide, sequence PDVDLGDISGINAS.

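The starting antibody came from a phage panning campaign against this peptide. This is the validation round: designs drawn from the data on random variants, tested in the same kind of assay. Their group label is 14L_GP_Gibbs (GP: Gaussian process model; Gibbs: Gibbs sampling; a sequence that several methods proposed may carry one label only). In AlphaSeq, yeast of one mating type display the scFv and yeast of the other type display the target. Mating (16 h, 30 °C) was followed by selection of diploids and sequencing of their barcodes. Read counts were normalised to the haploid input and turned into Kd by a linear fit to BCL2-family pairs of known affinity, for each replicate. There are six technical replicates.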

Ab-14 is the parent antibody, in scFv form: VH, then the linker GGGGSGGGGSGGGGS, then VL. The heavy chain is unchanged in all variants.
VH: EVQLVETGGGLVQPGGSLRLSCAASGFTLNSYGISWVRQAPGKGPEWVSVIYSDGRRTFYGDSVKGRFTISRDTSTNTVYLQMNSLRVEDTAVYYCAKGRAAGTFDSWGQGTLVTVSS
VL: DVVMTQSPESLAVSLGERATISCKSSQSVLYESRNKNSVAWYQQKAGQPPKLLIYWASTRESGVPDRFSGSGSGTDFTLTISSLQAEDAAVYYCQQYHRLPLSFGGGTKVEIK

Each variant is given by its three light chain CDRs, as the data file delimits them; those of the parent are KSSQSVLYESRNKNSVA, WASTRES, QQYHRLPLS.
Numbers give log10(Kd / nM), so 0 is 1 nM and 3 is 1 µM. Smaller is tighter.
"n.d." marks a missing value. The strain was present, yet no cells mated with the target were sequenced in that replicate, which points to weak or no binding.

| CDR-L1 | CDR-L2 | CDR-L3 | log10 Kd (nM) by replicate | control signals |
|---|---|---|---|---|
| KSSPSELYEDRNFNSVA | HASQREE | QQYHRLPLS | 0.07 -0.10 -0.28 -0.08 0.00 0.49 | 0 of 18 |
| HCSQSVWQEERQKNSVA | NASTREQ | QQYHRLPLS | 0.63 0.52 0.61 0.27 0.27 0.39 | 0 of 18 |
| KLQQSVDYESRNKNSVA | NASTREQ | QQYHQLPLS | 0.16 -0.05 -0.21 -0.23 -0.20 -0.12 | 0 of 18 |
| KSEQSVLDEERNDNSVA | WASHRLS | QQYHRLPLS | n.d. 2.32 n.d. 2.02 1.49 n.d. | 0 of 18 |
| KLPQSMQYESRNKNNVA | SASTRES | QQYHRLPLS | -0.42 -0.56 -0.82 -0.75 -0.77 -0.52 | 1 of 18 (1.90) |
| KLSQSVGMESRMVNNVA | AASTRED | QQYHRLPLS | 1.13 0.39 0.71 0.56 0.89 0.51 | 1 of 18 (1.87) |
| KIMQSQLGEMRNVNSVA | NASTRES | QQYHRLPLS | 0.25 0.11 0.08 -0.10 0.22 0.17 | 2 of 18 (3.56) |
| KLSFGELYESRNKNSVA | EASCREE | QQYHRLPLS | 0.44 -0.15 0.21 0.17 0.09 0.05 | 1 of 18 (2.08) |
| IIPQSWLGEWRNKNSVA | DASQRES | QQYHRLPLS | -0.14 -0.34 -0.36 -0.22 -0.43 -0.28 | 0 of 18 |
| KFSYGVLYEDRNQNSVA | NASQREQ | QQYHRLPLS | -0.13 0.06 0.24 0.07 -0.25 -0.08 | 0 of 18 |
| KLYMGVDYGDRNKNQVA | HASTRES | QQYHRLPLS | 0.28 0.22 0.02 0.11 0.17 0.35 | 1 of 18 (1.97) |
| KASDGELYESRDDNSVA | DASKRLS | QQYHRLPLS | 0.12 -0.21 -0.33 -0.32 -0.40 -0.04 | 3 of 18 (2.48) |
| KLSQSELYESRCKNNVA | EASQRES | QQYHRLPLS | 0.73 0.43 0.53 0.61 0.85 0.49 | 2 of 18 (2.65) |
| KFSQMDLYESRNGNSVA | DASTRSS | QQYHRLPLS | 0.08 -0.05 0.04 -0.27 -0.49 -0.08 | 1 of 18 (1.76) |
| KVSQSNPYESRNAQSVA | NASQRCS | QQYHRLPLS | 0.77 0.62 0.93 0.66 0.80 0.70 | 0 of 18 |
| KLSQWQWYEDRNKNSVA | SASTRCH | QQYHRLPLS | 0.75 0.05 0.25 0.45 0.29 0.36 | 1 of 18 (3.84) |
| KCAQSQDYESRNKNWVA | NASQRES | QQYHRLPLS | 0.31 0.36 0.24 0.28 0.41 0.85 | 1 of 18 (2.95) |
| KVSQSYCYEDRNKNNVA | NASDRMS | QQYHRLPLS | 0.50 0.07 0.37 0.34 0.21 0.84 | 0 of 18 |
| KLQQSWEYESRNSNNVA | MGSQREV | QQYHRLPLS | 0.05 -0.09 -0.12 -0.21 -0.17 -0.01 | 2 of 18 (2.81) |
| KLSQSQEYESRNINSVA | NASTRLT | QQYHRLPLS | 0.58 0.34 0.18 0.10 0.13 0.18 | 1 of 18 (2.56) |
| KLSGSVLGESRNKNSVA | SADTRLM | QQYHRLPLS | 0.16 0.04 -0.11 0.04 0.12 -0.11 | 3 of 18 (2.93) |
| KLVQSELYESRNKNNVA | GASQRES | QQYHRLPLS | -0.19 -0.21 -0.38 -0.45 -0.39 -0.23 | 0 of 18 |
| KQSQSVPMGERNKQSVA | MASYRES | QQYHRLPLS | 1.83 1.90 n.d. n.d. 3.81 n.d. | 0 of 18 |
| KSSQSVMGEDGNKNSVA | HASVRES | QQYHRLPLM | 0.64 0.51 0.65 0.67 0.61 0.75 | 3 of 18 (2.61) |
| KVEQLVDPKDRNSNSVA | NASTRES | QQYHQLPLS | 0.11 -0.11 -0.10 -0.28 -0.06 0.01 | 0 of 18 |
| KLSQSVDYEDRNCNAVA | AASQREE | QQYHRLPLS | 0.43 0.18 0.36 0.09 0.34 0.39 | 0 of 18 |
| KVSQLEPYESRMKNSVA | NASTREH | QQYHRLPLS | 0.27 0.19 0.10 0.21 0.13 0.15 | 3 of 18 (3.14) |
| KISQSYLGESRNVNAVA | NASTRES | QQYHRLPLS | -0.24 -0.35 -0.37 -0.31 -0.38 -0.32 | 2 of 18 (3.15) |
| KFQQWWLYESRMQNNVA | NASQRES | QQYHRLPLS | 0.01 -0.01 0.05 -0.27 -0.16 -0.15 | 1 of 18 (2.36) |
| KLQQGMDYESRNDNSVA | HASKRES | QQYHRLPLF | -0.01 -0.24 0.06 -0.09 0.08 0.07 | 0 of 18 |
| VLQQSVLPESRNKNSVA | HASTRLS | QQYHRLPLS | 0.90 1.00 0.98 0.89 0.57 1.03 | 3 of 18 (3.44) |
| KISQEWLYESRNINNVA | SCSQRES | QQYHRLPLS | 0.30 0.10 -0.03 0.07 0.08 0.07 | 2 of 18 (2.76) |
| KVSQSMGYESRNQNSVA | EASHRES | QDYHRLPLW | 0.83 0.83 0.38 0.45 0.46 0.50 | 0 of 18 |
| KVQMSNLYESRMHNSVA | DASVRES | QQYHRLPLS | 1.00 0.40 0.55 0.53 1.01 0.72 | 1 of 18 (3.38) |
| KFEPSWLYESRNVNSVA | QASQRSD | QQYHRLPLS | -0.01 0.11 -0.13 -0.26 -0.07 0.08 | 0 of 18 |
| KLSGSVCMLSRADNSVA | DASTRES | QQYHRLPLS | 0.79 0.49 0.50 0.48 0.54 0.76 | 1 of 18 (2.37) |
| KLQFLALQLQRNKNSVA | SASTRES | QQYHRLPLS | 2.24 1.56 1.30 0.62 3.35 0.95 | 0 of 18 |
| KLSGSMLYEQRMLNSVA | QASQRLS | QQYHRLPLS | 0.04 0.44 0.01 -0.11 0.17 0.00 | 0 of 18 |
| KLSFSVMLESRNKNAVA | SASTRES | QDYHRLPLS | 0.97 1.40 1.39 0.91 0.60 0.91 | 0 of 18 |
| KLQQLMLYESRMKNNVA | NASQRWS | QQYHRLPLS | 0.25 0.60 0.46 0.25 0.91 0.74 | 0 of 18 |
| KLDQSAEYGSRNKNSVA | SASTRES | QQYHRLPLS | 0.87 0.66 0.19 1.12 0.65 1.09 | 2 of 18 (1.92) |
| KLMQEDEYQSRMKNSVA | HASERLS | QQYHRLPLS | 0.37 0.23 -0.22 -0.11 -0.10 0.57 | 0 of 18 |
| KYSGSQLYEDRMVNSVA | NASQREE | QQYHRLPLS | 0.23 -0.03 0.06 0.09 -0.03 0.08 | 1 of 18 (2.23) |
| KVSQQNLYEQRNANNVA | NASYRES | QQYHRLPLS | -0.35 -0.45 -0.51 -0.51 -0.51 -0.40 | 0 of 18 |
| KLEWSDLLESRNKQSVA | NASQRES | QQYHRLPLS | 0.09 0.18 0.17 0.03 0.03 -0.09 | 0 of 18 |
| KESQSELYESANKNSVA | NAMQRMS | QQYHRLPLS | 0.29 0.14 -0.20 0.16 0.07 -0.12 | 0 of 18 |
| KISQSVLYQARNQNSVA | SASTRLH | QQYHRLPLS | 0.41 0.27 0.43 0.12 0.50 0.35 | 0 of 18 |
| KLSQSYEYESNNSNSVA | NASQREH | QQYHRLPLR | 0.53 0.90 0.59 0.67 0.68 0.96 | 2 of 18 (2.74) |
| KLSQQNLYESRMKNSVA | MASQREM | QQYHRLPLS | 0.70 0.08 0.72 0.38 0.53 0.46 | 2 of 18 (2.20) |

Excerpt, the first 6 entries:

| CDR-L1 | CDR-L2 | CDR-L3 | log10 Kd (nM) by replicate | control signals |
|---|---|---|---|---|
| KSSPSELYEDRNFNSVA | HASQREE | QQYHRLPLS | 0.07 -0.10 -0.28 -0.08 0.00 0.49 | 0 of 18 |
| HCSQSVWQEERQKNSVA | NASTREQ | QQYHRLPLS | 0.63 0.52 0.61 0.27 0.27 0.39 | 0 of 18 |
| KLQQSVDYESRNKNSVA | NASTREQ | QQYHQLPLS | 0.16 -0.05 -0.21 -0.23 -0.20 -0.12 | 0 of 18 |
| KSEQSVLDEERNDNSVA | WASHRLS | QQYHRLPLS | n.d. 2.32 n.d. 2.02 1.49 n.d. | 0 of 18 |
| KLPQSMQYESRNKNNVA | SASTRES | QQYHRLPLS | -0.42 -0.56 -0.82 -0.75 -0.77 -0.52 | 1 of 18 (1.90) |
| KLSQSVGMESRMVNNVA | AASTRED | QQYHRLPLS | 1.13 0.39 0.71 0.56 0.89 0.51 | 1 of 18 (1.87) |

The range of this assay differs from that of the first round, and the authors advise against merging the two.
Background: pairings of all light chain designs with three empty control strains gave a value in 4% of cases (median 2.64, 5th percentile 1.59). Values in that range, when seen in few replicates, are hard to tell from nonspecific mating. For each scFv, signals with the empty controls are counted beside the result, with their mean in brackets.
The parent sequence was in this pool as ten entries: three were never detected, three once, and four in most replicates, with averages from 0.34 to 2.37.
The authors averaged sequences with at least three values out of six and counted those with two or fewer as poor binders.